# scFv variants of Ab-91 (heavy chain) against a SARS-CoV-2 spike peptide

Target: peptide PDVDLGDISGINAS, taken from heptad repeat 2 (HR2) of SARS-CoV-2 spike.

Each scFv is VL, three GGGGS repeats, VH, as in the parent Ab-91, and differs from it in the CDRs of the heavy chain only.
VL: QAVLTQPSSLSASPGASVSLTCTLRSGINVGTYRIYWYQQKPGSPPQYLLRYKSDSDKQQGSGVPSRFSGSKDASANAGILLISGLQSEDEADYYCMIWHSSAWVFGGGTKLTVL
VH: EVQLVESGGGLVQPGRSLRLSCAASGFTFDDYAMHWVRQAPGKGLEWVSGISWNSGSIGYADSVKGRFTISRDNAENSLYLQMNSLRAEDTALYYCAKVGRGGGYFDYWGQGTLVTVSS

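Phage display of a naive human antibody library on the peptide gave the parent. Variants in AAYL51 differ from the parent at up to three CDR positions; double and triple changes were sampled at random. In AlphaSeq, yeast of one mating type display the scFv and yeast of the other type display the target. Mating (16 h, 30 °C) was followed by selection of diploids and sequencing of their barcodes. Read counts were normalised to the haploid input and turned into Kd by a linear fit to BCL2-family pairs of known affinity, for each replicate. Mating was done three times.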

Variants are written as CDR1, CDR2 and CDR3 of the heavy chain (limits as in the source). Parent: GFTFDDYAMH, GISWNSGSIGYADSVK, VGRGGGYFDY.
Affinities are written as log10 Kd with Kd in nM; a lower number is a better binder.
A pair that was not seen in that replicate is written "ND"; this usually means weak binding, but a binder can also be missed.
Parent in this assay: reference entry 1.86, copy in this library 0.88.
Three control strains display no target. For library AAYL51, 21% of the pairings with them gave a signal, with a median of 4.54 and one signal in twenty below 3.26, so weak values seen in few replicates may be background. Also given: how often the same scFv was detected with the empty control strains, with their mean in brackets.

CDR-H1	CDR-H2	CDR-H3	replicates, log10 nM	signal with controls
GFTFDDYAMH	GISWNSRVIGYAQSVK	VGRGGGYFDY	4.92 ND ND	2/9 (4.12)
GFTFDKYAMH	GISWVSPSIGYADSVK	VGRGGGYFDY	ND ND ND	0/9
GHTFDDYAMH	GGSWNSGSIGYADSVK	CGRGGGYFDY	ND ND ND	1/9 (5.42)
GFTMDDLAMH	GISWNSGSLGYADSVK	VGRGGGYFDY	ND ND 3.30	0/9
GFTFDDYAMH	GISYNSGSIAYADSVK	VGRGGGWFDY	0.56 0.47 -0.31	5/9 (4.35)
GFTFDDYAMH	GISHNSGSIGYADSVK	VGRGGIYNDY	ND ND ND	0/9
GFTFDDYAMH	GISKNSGSIGYQDSVK	AGRGGGYFDY	4.28 3.85 3.70	5/9 (4.79)
GFTFDDYEMH	GISWNSQSIGYADSVK	VGRGGGYFDK	5.00 ND ND	5/9 (5.02)
GFTFDLYAMH	GISWNSGSIGYADSLE	VGRGGGYFDY	3.91 ND 4.55	5/9 (5.39)
TFTFCDYAMH	GISWNSGSIGYAFSVK	VGRGGGYFDY	3.45 4.44 ND	0/9
GFTFDDYRMH	GCSWNSGSIGYADSVK	VGRGGGYFDY	5.16 4.85 5.77	8/9 (5.47)
LFTFDDYAMH	GISWNSGSIGYRDSVK	VGTGGGYFDY	5.06 5.96 ND	2/9 (5.81)
GFTFDAYAMH	GISWNSGSIGYADSVQ	VGRGGGYFDY	1.44 1.11 0.56	4/9 (5.06)
GFTFDDWIMH	GISWNSGSIGYADSVK	VGRGGGNFDY	6.02 6.09 ND	7/9 (4.35)
GFAFDDYAME	GISWNSGSIGYADSVK	VGWGGGYFDY	4.46 ND ND	4/9 (4.32)
GGTFDDYAMH	GISWNSGSIGYADSVK	VSCGGGYFDY	ND ND ND	0/9
GFTFDDYAMH	GSSWNSGSIQYADSVK	PGRGGGYFDY	ND ND ND	0/9
GFTFDDYAMH	GISWNSGSIGYADSVK	VGRGALYFDL	1.28 1.51 0.88	4/9 (4.88)
GFTFDDYAMG	GISWVSRSIGYADSVK	VGRGGGYFDY	4.28 ND 5.08	7/9 (4.60)
GFTFDDYAMH	GISWVSGSITYADSVK	IGRGGGYFDY	ND ND ND	1/9 (4.23)
GFTFDDYKMH	GISWNSGSIGYADSHK	GGRGGGYFDY	ND ND ND	1/9 (4.21)
GFTFDDYAMH	GISWNSGSIGYADSVA	VGRKGGYSDY	ND ND ND	0/9
GFTFDDYAMH	GISWNDYSIGYADSVK	FGRGGGYFDY	ND ND ND	4/9 (3.49)
GFTFDDYAMH	GISWNRGSIGYADSVK	VGRGYGYFDE	ND ND ND	1/9 (3.34)
GFTFDDYAMH	GISWNSGSKGYADSVK	VGRGGPDFDY	ND ND ND	0/9
GFTFDNYAMH	GISWNSGSIGYADSHK	VGRGGGYFGY	ND 4.68 ND	2/9 (4.38)
GFTFIDYWMH	GISWNSGSIGYADSVK	VGRSGGYFDY	4.67 3.64 ND	6/9 (4.09)
GFTADDYAMH	GISWNSGSIGYADSVK	VGRGGGPFDY	ND ND ND	2/9 (5.08)
GFTFDDYAMT	GISWNSGSIGYWDQVK	VGRGGGYFDY	ND ND 3.35	2/9 (4.06)
GFRFFDYAMH	GISWNSGKIGYADSVK	VGRGGGYFDY	5.62 4.62 5.49	6/9 (4.85)
GFTFCDYAMH	GISWNSGSIGYADSVK	VGRGWGYFDY	3.81 ND 4.52	5/9 (4.84)
GFTFDDYAMH	GISWNSGSIGYADSVM	VGRGGGYFDV	1.23 1.27 0.54	0/9
GFTFDDYAMS	GISWNPGSIGYADSVK	VGRGGGYFDY	ND ND ND	0/9
GFTFDDYAMH	GISWHSGSIGYADSVK	VGAGCGYFDY	6.22 4.57 ND	6/9 (4.78)
GFTFDDYAMH	GISWNSGSIGYASHVK	VCRGGGYFDY	ND ND ND	1/9 (3.67)
GFFFDDYAMH	GISWNSGSKGYADSVK	VGRGGGYFDY	1.65 1.54 1.24	4/9 (4.74)
GFTFDDYAMH	GISWNSGSIGIADFVK	VGRGGGYQDY	ND ND ND	0/9
GFTFDKYAMH	GIKWNSGSIGYADSVA	VGRGGGYFDY	3.67 ND ND	1/9 (5.44)
GFTFDVYACH	GISWNSGSIGYADSVK	VGRIGGYFDY	4.57 ND ND	3/9 (4.34)
GFTFDDYAMH	SISWNSGSISYADSVK	VGNGGGYFDY	ND 5.87 ND	1/9 (4.12)
GFTEDDYAMH	GISWNSGSIGYADSVK	WGRGGGYFDI	4.48 4.29 ND	2/9 (3.95)
GFTVDDYAMT	GISWNSGSIGYADSVK	VGLGGGYFDY	ND ND ND	0/9
GFTFDDYAMH	GQSWNSGSIGYKDSVK	VGRGGGYFDS	ND ND ND	0/9
GFTFDDYAMH	GISWNSGSIHYADSVK	VGRQGGYADY	4.14 ND 4.80	4/9 (4.43)
GFTFDDYAMH	GASWNSISIGYADTVK	VGRGGGYFDY	ND ND ND	2/9 (3.12)
GFVFDDYAMH	GISWNSGSIGYAHSVK	VGIGGGYFDY	ND ND ND	0/9
GFTFDDYAMH	GISWNCGSSGYADSVK	VGRYGGYFDY	ND ND 3.05	0/9
TFTFDDYAMH	GISINSGSIGYADSVK	VGRDGGYFDY	ND ND ND	0/9
GFTFDYYAMH	GISWNSGSIGYADSVK	VGRGGGIFQY	ND ND ND	0/9

Extract of 8 entries:

{"CDR-H1": "GGTFDDYAMH", "CDR-H2": "GISWNSGSIGYADSVK", "CDR-H3": "VSCGGGYFDY", "replicates, log10 nM": "ND ND ND", "signal with controls": "0/9"}
{"CDR-H1": "GHTFDDYAMH", "CDR-H2": "GGSWNSGSIGYADSVK", "CDR-H3": "CGRGGGYFDY", "replicates, log10 nM": "ND ND ND", "signal with controls": "1/9 (5.42)"}
{"CDR-H1": "GFTFDDYKMH", "CDR-H2": "GISWNSGSIGYADSHK", "CDR-H3": "GGRGGGYFDY", "replicates, log10 nM": "ND ND ND", "signal with controls": "1/9 (4.21)"}
{"CDR-H1": "TFTFCDYAMH", "CDR-H2": "GISWNSGSIGYAFSVK", "CDR-H3": "VGRGGGYFDY", "replicates, log10 nM": "3.45 4.44 ND", "signal with controls": "0/9"}
{"CDR-H1": "GFTFDDYAMH", "CDR-H2": "GISWNRGSIGYADSVK", "CDR-H3": "VGRGYGYFDE", "replicates, log10 nM": "ND ND ND", "signal with controls": "1/9 (3.34)"}
{"CDR-H1": "GFTADDYAMH", "CDR-H2": "GISWNSGSIGYADSVK", "CDR-H3": "VGRGGGPFDY", "replicates, log10 nM": "ND ND ND", "signal with controls": "2/9 (5.08)"}
{"CDR-H1": "GFTFDDYRMH", "CDR-H2": "GCSWNSGSIGYADSVK", "CDR-H3": "VGRGGGYFDY", "replicates, log10 nM": "5.16 4.85 5.77", "signal with controls": "8/9 (5.47)"}
{"CDR-H1": "GFTFDDYAMH", "CDR-H2": "GISWHSGSIGYADSVK", "CDR-H3": "VGAGCGYFDY", "replicates, log10 nM": "6.22 4.57 ND", "signal with controls": "6/9 (4.78)"}

From the AlphaSeq antibody data of Engelhart et al. 2022 (doi:10.1038/s41597-022-01779-4), copy in the FLAb collection.